How the values were obtained:
rats dosed cholic acid = assay: Lowering effect on bile acid concentrations in portal vein blood in rats dosed cholic acid
Caco-2 cell = assay: Gastrointestinal toxicity: cytotoxicity against Caco-2 cell (LDH activity); settings: 2 hours, LDH activity in medium relative to cell lysis agent = 100%
human IBAT = human IBAT (Homo sapiens, UniProt Q12908); assay: In vitro assay using Cos 7 cells, transiently expressed human IBAT; type: cell-based; settings: read-out: Cos 7/human IBAT IC50; [3H]-taurocholate 8 μM uptake, 37° C., 60 minutes
[1] = 0.1 mg/kg oral, surfactant HCO-60 0.1%, cholic acid 200 mg/kg, portal vein blood 2 hours after administration
[2] = 0.3 mg/kg oral with cholic acid 200 mg/kg, portal vein serum total bile acid 2 hours after, control = 100%, surfactant HCO-60 (##)

The chains behind the UniProt entries cited, without tags or fusion partners.
UniProt Q12908, whole entry: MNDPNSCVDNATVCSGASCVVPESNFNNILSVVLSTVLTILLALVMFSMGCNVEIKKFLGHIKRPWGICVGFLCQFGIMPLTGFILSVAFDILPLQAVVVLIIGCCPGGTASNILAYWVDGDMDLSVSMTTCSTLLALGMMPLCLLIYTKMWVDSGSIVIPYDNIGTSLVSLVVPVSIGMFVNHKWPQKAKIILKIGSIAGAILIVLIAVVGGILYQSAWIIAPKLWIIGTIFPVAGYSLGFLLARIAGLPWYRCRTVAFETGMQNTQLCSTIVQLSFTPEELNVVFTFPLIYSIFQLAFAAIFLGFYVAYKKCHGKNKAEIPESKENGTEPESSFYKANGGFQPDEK

## CCCCC1(CCCC)CS(=O)(=O)c2ccc(N(C)C)cc2C(c2cccc(NC(=S)NCCCCC[N+](C)(C)Cc3ccccc3)c2)N1 (centres unmarked)
Rats dosed cholic acid; [1]
  BILE ACID REDUCTION RATE (%) IN RAT MODEL WITH CHOLIC ACID LOADING: 18%

## CCCCC1(CCCC)CS(=O)(=O)c2ccc(N(C)C)cc2C(c2cccc(NC(=S)Nc3ccc(CC[N+]45CCC(CC4)CC5)cc3)c2)N1 (centres unmarked)
Rats dosed cholic acid; [2]
  BILE ACID REDUCTION RATE (%) IN RAT MODEL WITH CHOLIC ACID LOADING: 40%
Caco-2 cell
  CELL TOXICITY AGAINST Caco2 3 μM: <1%
  CELL TOXICITY AGAINST Caco2 10 μM: <1%
  CELL TOXICITY AGAINST Caco2 30 μM: <1%

## CCCCC1(CCCC)CS(=O)(=O)c2ccc(N(C)C)cc2C(c2cccc(NC(=S)Nc3cccc(C[N+]4(Cc5ccccc5)CCC(CO)CC4)c3)c2)N1 (centres unmarked)
Rats dosed cholic acid; [1]
  BILE ACID REDUCTION RATE (%) IN RAT MODEL WITH CHOLIC ACID LOADING: 17%

## CCCCC1(CCCC)CS(=O)(=O)c2ccc(N(C)C)cc2C(c2cccc(NC(=S)Nc3cccc(C[N+]4(Cc5ccccc5)CCC(NC(C)=O)C4)c3)c2)N1 (centres unmarked)
Human IBAT
  IC50: 61 nM

## CCCCC1(CCCC)CS(=O)(=O)c2ccc(N(C)C)cc2C(c2cccc(NC(=S)Nc3ccc(CC[N+](C)(C)Cc4ccccc4)cc3)c2)N1 (centres unmarked)
Rats dosed cholic acid; [2]
  BILE ACID REDUCTION RATE (%) IN RAT MODEL WITH CHOLIC ACID LOADING: 39%
Caco-2 cell
  CELL TOXICITY AGAINST Caco2 3 μM: <1%
  CELL TOXICITY AGAINST Caco2 10 μM: <1%
  CELL TOXICITY AGAINST Caco2 30 μM: <1%

## CCCCC1(CCCC)CS(=O)(=O)c2ccc(N(C)C)cc2C(c2cccc(NC(=S)Nc3cccc(C[N+]45CCC(CC4)CC5)c3)c2)N1 (centres unmarked)
Rats dosed cholic acid; [1]
  BILE ACID REDUCTION RATE (%) IN RAT MODEL WITH CHOLIC ACID LOADING: 37%

## CCCCC1(CCCC)CS(=O)(=O)c2ccc(N(C)C)cc2C(c2cccc(NC(=S)Nc3cccc(C[N+]4(Cc5ccccc5)CCC(NC(=O)OC(C)(C)C)C4)c3)c2)N1 (centres unmarked)
Human IBAT
  IC50: 43 nM

## CCCCC1(CCCC)CS(=O)(=O)c2ccc(N(C)C)cc2C(c2cccc(NC(=S)Nc3cccc(C[N+]4(Cc5ccccc5)CCC(CCO)CC4)c3)c2)N1 (centres unmarked)
Rats dosed cholic acid; [1]
  BILE ACID REDUCTION RATE (%) IN RAT MODEL WITH CHOLIC ACID LOADING: 22%

From US20120015925A1, “NOVEL BENZOTHIAZEPINE AND BENZOTHIEPINE COMPOUNDS” (ASAHI KASEI PHARMA CORPORATION, priority 2004, published 2012)
